# Binding of CDR-mutated scFvs to a peptide of the spike HR2 region

Target: peptide PDVDLGDISGINAS, taken from heptad repeat 2 (HR2) of SARS-CoV-2 spike.

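The parent was found by panning a naive human phage display library on the peptide. These sequences belong to a second round, designed from the earlier measurements on random variants of the parent. Group labels follow the data file (Ctrl: baseline library sampled from a position-specific scoring matrix, with some repeated check sequences; En: ensemble of fine-tuned language models; GP: Gaussian process model; HC: hill climbing; Gen: genetic algorithm; Gibbs: Gibbs sampling; a sequence that several methods proposed may carry one label only). Affinity was read by AlphaSeq, a pooled yeast mating assay with surface-displayed partners. After mating in shaken culture at 30 °C for 16 h, diploids were selected and their barcode pairs sequenced. Read counts were normalised to the haploid input and turned into Kd by a linear fit to BCL2-family pairs of known affinity, for each replicate. The assay was run in six technical replicates.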

Parent: Ab-14, a human scFv built as VH, the linker GGGGSGGGGSGGGGS, VL. Only the CDRs of the light chain vary.
VH: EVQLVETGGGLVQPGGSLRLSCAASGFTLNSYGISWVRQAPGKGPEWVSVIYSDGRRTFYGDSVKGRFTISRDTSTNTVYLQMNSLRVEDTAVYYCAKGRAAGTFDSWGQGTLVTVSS
VL: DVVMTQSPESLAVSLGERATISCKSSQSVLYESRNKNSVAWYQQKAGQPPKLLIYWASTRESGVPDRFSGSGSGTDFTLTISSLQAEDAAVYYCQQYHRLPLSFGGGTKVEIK

The parent's light chain CDRs are KSSQSVLYESRNKNSVA, WASTRES, QQYHRLPLS; each variant's own CDRs replace them letter for letter.
Values are log10 of the apparent Kd in nM; lower means stronger binding.
The mean shown is taken over the replicates in which the pair was detected.
"not detected" marks a missing value. The strain was present, yet no cells mated with the target were sequenced in any replicate, which points to weak or no binding.
Entries are sorted by rising average, undetected variants last.
In the paper, a design with two or fewer of six values counts as a poor binder.
The parent sequence was in this pool as ten entries: three were never detected, three once, and four in most replicates, with averages from 0.34 to 2.37.
Some sequences occur more than once in the pool; their replicates are pooled.
A sequence measured in both rounds can read differently, since the two assays cover different ranges.
Empty control strains, which show no peptide, gave a signal in 4% of pairings with all light chain designs; the median was 2.64 and 95% of these signals were weaker than 1.59. No background was subtracted.

| CDR-L1 | CDR-L2 | CDR-L3 | group | log10 Kd (nM), mean | replicates with signal |
|---|---|---|---|---|---|
| KVSQSVLYESRNKNSVA | DASTRED | QQYHRLPLS | GP_Gen | -0.40 | 6/6 |
| KLSQSKGYESRNPNSVA | NASTRER | QQYHRLPLS | GP_Gibbs | -0.24 | 6/6 |
| KISQSVLYESRNKNSVA | DGSTRES | QQYHRLPLS | GP_Gen | -0.20 | 6/6 |
| KISQSWLMESRNKNSVA | EASTRQS | QQYHRLPLS | GP_HC | -0.14 | 6/6 |
| KLMQSVEYESRNKNSVA | NASTRES | QQYHRLPLS | GP_Gen | -0.13 | 6/6 |
| KVSQSFLYESRNKNSVA | HASTRES | QQYHRLPLS | GP_Gen | -0.11 | 6/6 |
| KLSQSVDYESRNKNSVA | EASTRES | QQYHRLPLS | GP_Gen | 0.00 | 6/6 |
| KQSQSVLYESRNKNNVA | EASTRES | QQYHRLPLS | GP_Gen | 0.01 | 6/6 |
| KVSQEMLYESRMINSVA | NASQRES | QQYHRLPLS | GP_Gibbs | 0.06 | 6/6 |
| KSSQSWLYESTNKNSVA | SVSTRES | QQYHRLPLS | Ctrl | 0.13 | 6/6 |
| KLSQSVLYESRTKNSVA | NASTRES | QQYHRLPLS | GP_Gen | 0.16 | 6/6 |
| KSSISTLYESRNKNSVA | AASTRES | QQYHRLPLS | GP_HC | 0.17 | 6/6 |
| KSEQSELYESRNKNSVA | NASQRES | QQYHRLPLS | GP_Gen | 0.25 | 6/6 |
| KLSASQLYWSRNKNSVA | QASTRET | QQYHRLPLS | GP_Gibbs | 0.27 | 6/6 |
| KVSFSVMLESRNKNAVA | EASTRES | QQYHRLPLS | GP_Gibbs | 0.30 | 6/6 |
| NQSQSWLYESRNKNSVA | GGNTRES | QQYHRLPLS | GP_HC | 0.32 | 6/6 |
| KLSQSMLYEQRNKNSVA | NASLREV | QCYHRLPLS | GP_Gibbs | 0.42 | 6/6 |
| LVDQSQLYENRMKNSVA | EASLRES | QQYHRLPLS | GP_Gibbs | 0.45 | 6/6 |
| KVAQSWLMESRNKNSVA | EASTRQS | QQYHRLPLS | GP_HC | 0.50 | 6/6 |
| KMVKAKSEGDRHAANIA | NANKATD | QQYYRLPLA | En_Gibbs | 0.52 | 6/6 |
| KLRFSVMGESRNKNSVA | SASTRES | QQYHRLPLS | GP_Gibbs | 0.53 | 6/6 |
| KIGMTLNTLLHQKNNVA | DLVTREN | QQYFRLPLS | En_Gen | 0.62 | 6/6 |
| KLSVMQSYLSVNKNSVA | EMTTREN | QQYDRLPLS | En_HC | 0.73 | 6/6 |
| KLDQSVLSESANKNSVA | NASTRES | QQYHRLPLS | Ctrl | 0.74 | 6/6 |
| MVYQAVMMGTATRNSIA | NAEMRPD | QQYHRLPLI | En_Gen | 0.79 | 6/6 |
| RVRLNEGEIDMHWYNIA | SVSIRAD | QQYSRLPLF | En_Gibbs | 0.83 | 6/6 |
| KFSQSVLYSSRNKNSVA | WASTRES | QQYHRLPLS | Ctrl | 0.99 | 6/6 |
| KLSMSYRFETEEKNSIA | ELVTRMK | QQYHRLPLS | En_HC | 1.00 | 6/6 |
| IISQSVLGGYHNKNSVA | QTSERGQ | QQYDRLPLM | En_HC | 1.16 | 6/6 |
| IISEVMNTLTRHGNNVA | DLAERED | QQYFRLPLS | En_Gen | 1.24 | 6/6 |
| KSSQSVLYESRNLNSVA | WASTRES | QQYHRLPLS | Ctrl | 1.32 | 27/30 |
| KSSQSDLYESSNKNSVA | NASTRES | QYYHRLPLS | Ctrl | 1.50 | 6/6 |
| KSSPSVDYESHNKNSVA | WASTRES | QQYHRLPLS | Ctrl | 1.53 | 6/6 |
| KSSQSVLYETRNKNSVA | WASTRES | QQYHRLPLS | Ctrl | 1.53 | 3/6 |
| TIGQVMHYESRNVNSVA | QTSTREE | QDYHRLPLS | En_HC | 1.54 | 6/6 |
| MISDTGLHDSRMQNSVA | NNSTREP | QQYHRLPLS | En_HC | 1.74 | 6/6 |
| KSLQSVPYESRNKNSVA | HASTRED | QQYHRLPLS | GP_HC | 1.78 | 5/6 |
| KESQSVLYESLNKNSVA | WASTRES | QQYHRDPLS | Ctrl | 1.85 | 1/6 |
| KLSQVTNSEHKVENSIA | EMVTREK | QQYDRLPLS | En_HC | 1.87 | 6/6 |
| IVSQSVLGESRNLNSVA | QTSEREY | QQYDRLPLS | En_HC | 1.91 | 6/6 |
| KSSQSDLNESRNKNSVA | WASTRES | QQYDRLPLE | Ctrl | 2.23 | 5/6 |
| KSSTSVLYESRNKNSIA | WASTRES | QQYNRLPLS | Ctrl | 2.58 | 2/6 |
| KSMQSVLSESRNKNSVA | WASTRES | QQYHRLPLS | Ctrl | 2.60 | 5/6 |
| KSSQSQLYASRNKNSVA | WASYRES | QQYHRLPLS | Ctrl | not detected | 0/6 |
| QLMFKEANGMNNAYNVA | EAEYSGT | QQYSQLPLG | En_Gibbs | not detected | 0/6 |
| KSSISLLYESRNKNSVA | AASTRES | QQYHRLPLS | GP_HC | not detected | 0/6 |
| KSSESVWYESRNKNSVA | MDSTRES | QQVHRLPLS | Ctrl | not detected | 0/6 |
| KLSLFYRMESRNKNSVA | DNSTRES | QDYDRLPLS | En_HC | not detected | 0/6 |

Again, the first 5 entries without any signal:

| CDR-L1 | CDR-L2 | CDR-L3 | group | log10 Kd (nM), mean | replicates with signal |
|---|---|---|---|---|---|
| KSSQSQLYASRNKNSVA | WASYRES | QQYHRLPLS | Ctrl | not detected | 0/6 |
| QLMFKEANGMNNAYNVA | EAEYSGT | QQYSQLPLG | En_Gibbs | not detected | 0/6 |
| KSSISLLYESRNKNSVA | AASTRES | QQYHRLPLS | GP_HC | not detected | 0/6 |
| KSSESVWYESRNKNSVA | MDSTRES | QQVHRLPLS | Ctrl | not detected | 0/6 |
| KLSLFYRMESRNKNSVA | DNSTRES | QDYDRLPLS | En_HC | not detected | 0/6 |

From the AlphaSeq antibody data of Li et al. 2023 (doi:10.1038/s41467-023-39022-2), copy in the FLAb collection.